Patent US4380535A, “Enkephalin degrading enzyme inhibitors” (priority 1981, dated 1983)

System: opiate receptor
Assay: opiate receptor affinity, 3H-naloxone displacement in rat brain homogenate (modified Chang)
Assay type: binding
Details: 3H-naloxone displacement (ID50) relative to morphine, with NaCl

CN1CC[C@]23c4c5ccc(O)c4O[C@H]2[C@@H](O)C=C[C@H]3[C@H]1C5 [morphine, reference compound]
relative displacement potency as compared to morphine (1): 1
